Drawing on publication PMC11062894, “Protein-based bandpass filters for controlling cellular signaling with chemical inputs” (Nature Chemical Biology, 2023), this text covers IC50 for 1 compound.

Protein sequences, listed by entry. Tags and fused reporters are not part of them.
UniProt P10415, whole entry: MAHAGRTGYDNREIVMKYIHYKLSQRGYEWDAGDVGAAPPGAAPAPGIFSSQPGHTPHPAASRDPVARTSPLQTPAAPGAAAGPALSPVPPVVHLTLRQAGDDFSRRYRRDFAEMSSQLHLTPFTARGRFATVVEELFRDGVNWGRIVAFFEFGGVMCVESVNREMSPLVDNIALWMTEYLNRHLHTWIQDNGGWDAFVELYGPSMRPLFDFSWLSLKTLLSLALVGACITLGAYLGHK

The target of this test is GEMS receptors with Bcl2:LD3 in HEK293T cells (Homo sapiens, UniProt P10415). The experiment in a line: GEMS SEAP reporter assay, Bcl2:LD3 complex disruption. In kind it is cell-based. As to the method:
HEK293T cells were seeded in a 96-well plate 24 h before transfection. The transfection mix in each well consisted of 3 ng of constitutive human CMV promoter driven mammalian STAT3 expression vector (PhCMV-STAT3-pA), 30 ng of STAT3-induced reporter expression (OStat3-PhCMVmin-SEAP-pA) and 50 ng of expression vectors for each GEMS receptor chain (PSV40-IgK-(drughigh receptor)-EpoRm-IL-6RBm-pA and PSV40-IgK-(druglow receptor-GGGGSX3-LD3)-EpoRm-IL-6RBm-pA). For the specific drughigh receptor and druglow receptor used in the different cellular assays, they are indicated as wild type or with mutations. Then, plasmid DNA was mixed with 50 μl opti-MEM (Thermo Fisher) and 600 ng of polyethyleneimine (Polysciences, catalog no. 24765-1). For drug treatment experiments, drugs were added 12 h post-transfection and incubated with cells for 24 h before the SEAP reporter detection assay.
SEAP activity (U l^−1) in cell culture supernatants was quantified by kinetic measurements at 405 nm (1 minute per measurement for 30 cycles) of absorbance increase due to phosphatase-mediated hydrolysis of para-nitrophenyl phosphate (pNPP). […]

In turn, `CC1(C)CCC(c2ccc(Cl)cc2)=C(CN2CCN(c3ccc(C(=O)NS(=O)(=O)c4ccc(N[C@H](CCN5CCOCC5)CSc5ccccc5)c(S(=O)(=O)C(F)(F)F)c4)cc3)CC2)C1` [Navitoclax] showed a half-maximal inhibitory concentration (IC50) of 1770 nM. This lies in the single-digit micromolar range.

The IC50 is the concentration needed to halve the response being measured. A high value points to lower potency.
